Laboratory results published in US20230227492A1 (priority 2020, published 2023).

Amino acid sequences for entries named in this document (tags omitted). Residues count along the entry.
UniProt P15207, 651-882 limits assumed: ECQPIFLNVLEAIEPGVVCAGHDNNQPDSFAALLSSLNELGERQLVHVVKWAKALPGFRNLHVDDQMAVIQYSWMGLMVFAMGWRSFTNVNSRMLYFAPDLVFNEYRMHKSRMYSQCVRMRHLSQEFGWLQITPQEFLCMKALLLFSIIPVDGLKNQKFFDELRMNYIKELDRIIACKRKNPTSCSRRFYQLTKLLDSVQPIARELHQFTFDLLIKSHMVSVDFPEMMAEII

Molecular target: T1, rat AR ligand-binding domain tagged with His and GST [AR-LBD (His-GST)] (Rattus norvegicus, UniProt P15207)
T1 construct: purchased Life Technologies (Carlsbad, Calif.)
Assay: AR fluorescence polarization (FP) binding assay
Details: Fluormone AL Green

SMILES	IC50 (nM) AR [nM]
CC12CCC(=O)C=C1CC(c1ccccc1)C1C2CCC2(C)C(O)CCC12 (stereo not drawn) [CDB-4920, 7α-Phenyl Testosterone]	43.1
CC12CCC(=O)C=C1CC(c1ccccc1)C1C2CCC2(C)C(O)CCC12 (stereo not drawn) [CDB-4921, 7β-Phenyl Testosterone]	891.7
